Measured values as given in BindingDB's records for US11129827.

The chains behind the UniProt entries cited, without tags or fusion partners.
UniProt O00519, whole entry, looked up: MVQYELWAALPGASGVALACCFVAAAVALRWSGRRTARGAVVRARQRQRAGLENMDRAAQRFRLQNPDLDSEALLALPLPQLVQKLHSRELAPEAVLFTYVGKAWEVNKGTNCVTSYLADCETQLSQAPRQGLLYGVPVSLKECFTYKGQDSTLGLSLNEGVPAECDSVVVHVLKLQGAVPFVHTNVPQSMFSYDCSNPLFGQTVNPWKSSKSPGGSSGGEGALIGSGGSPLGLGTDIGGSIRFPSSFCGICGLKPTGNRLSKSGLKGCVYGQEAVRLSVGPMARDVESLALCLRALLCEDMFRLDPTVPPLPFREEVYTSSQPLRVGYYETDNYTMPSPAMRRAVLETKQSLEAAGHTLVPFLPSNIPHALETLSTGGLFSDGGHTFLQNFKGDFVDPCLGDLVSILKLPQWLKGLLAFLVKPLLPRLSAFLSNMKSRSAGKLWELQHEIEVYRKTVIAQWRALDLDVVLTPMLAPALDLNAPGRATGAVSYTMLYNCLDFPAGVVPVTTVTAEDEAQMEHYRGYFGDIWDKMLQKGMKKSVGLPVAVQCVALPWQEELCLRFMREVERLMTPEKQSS
UniProt Q99685, whole entry, looked up: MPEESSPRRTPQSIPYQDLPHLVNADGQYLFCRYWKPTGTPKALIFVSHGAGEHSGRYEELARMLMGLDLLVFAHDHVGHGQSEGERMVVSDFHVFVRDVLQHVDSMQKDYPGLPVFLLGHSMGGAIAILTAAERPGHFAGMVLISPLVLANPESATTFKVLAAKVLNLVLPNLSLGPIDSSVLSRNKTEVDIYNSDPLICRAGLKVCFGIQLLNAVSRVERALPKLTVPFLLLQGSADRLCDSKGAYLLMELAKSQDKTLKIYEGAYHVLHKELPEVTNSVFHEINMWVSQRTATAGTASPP

target: Fatty-acid amide hydrolase 1 (Homo sapiens, UniProt O00519); assay: In Vitro Competitive Activity-Based Protein Assay
Experimental: (§1) Proteomes (mouse brain membrane fraction or cell lysates for mouse assays; human prefrontal cortex or cell membrane fractions for human assays) (50 μL, 1.0 mg/mL total protein concentration) were preincubated with varying concentrations of inhibitors at 37° C. After 30 min, FP Rh or HT-01 (1.0 μL, 50 μM in DM

| Compound | IC50 |
| --- | --- |
| C[C@@H]1CN(Cc2cccc(C(F)(F)F)c2)CCN1C(=O)Oc1cncc(C(N)=O)c1 | < 1000 nM |

target: Monoglyceride lipase (Homo sapiens, UniProt Q99685); assay: In Vitro Competitive Activity-Based Protein Assay
Experimental: as §1

| Compound | IC50 |
| --- | --- |
| CC(C)Oc1cc(CN2CCN(C(=O)Oc3cncc(N)c3)[C@H](C)C2)ccc1Cl | > 51 µM |
| NC(=O)c1cc(Cl)cc(CN2CCN(C(=O)Oc3cncc(C(N)=O)c3)CC2)c1 | > 51 µM |
| C[C@@H]1CN(Cc2cnccc2C(F)(F)F)CCN1C(=O)Oc1cncc(C#N)c1 | > 51 µM |
| C[C@@H]1CN(Cc2cccc(OC(F)(F)F)c2)CCN1C(=O)Oc1cncc(F)c1 | > 51 µM |
| Cc1c(F)cncc1OC(=O)N1CCN(Cc2cc(Cl)ccc2C(F)(F)F)CC1 | > 51 µM |
